{
  "sequences": {"note": "Sequences of proteins named here, by UniProt entry; tags and fusion partners are left off. A change or cut given only in a name is not applied to a line headed by its entry.", "UniProt P11802": "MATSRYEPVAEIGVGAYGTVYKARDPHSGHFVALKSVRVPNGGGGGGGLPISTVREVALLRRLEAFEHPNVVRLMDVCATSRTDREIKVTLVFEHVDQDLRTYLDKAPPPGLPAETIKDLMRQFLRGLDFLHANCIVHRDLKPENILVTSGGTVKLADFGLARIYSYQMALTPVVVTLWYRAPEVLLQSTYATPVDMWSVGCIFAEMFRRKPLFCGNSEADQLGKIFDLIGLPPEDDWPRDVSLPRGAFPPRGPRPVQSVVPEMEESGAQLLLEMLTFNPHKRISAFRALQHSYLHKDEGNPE"},
  "source": "patent US20250144099A1",
  "about": "“INK4 TUMOR SUPPRESSOR PROTEINS MEDIATE RESISTANCE TO CDK4/6 KINASE INHIBITORS” (MEMORIAL SLOAN-KETTERING CANCER CENTER, priority 2021, published 2025)",
  "target": "CDK4 (Homo sapiens, UniProt P11802)",
  "conditions": "pre-treatment with 100 nM abemaciclib",
  "note": "Where two headings read alike, the source gives them in different places.",
  "data": [
    {"smiles": "CCN1CCN(Cc2ccc(Nc3ncc(F)c(-c4cc(F)c5nc(C)n(C(C)C)c5c4)n3)nc2)CC1", "note": "[abemaciclib]", "values": [
      {"measurement": "kinase activity of CDK4 reduced compared to untreated", "setting": "IP-CDK4 from resistant CDK6-high (FAT1 loss) MCF7 cells", "result": 82, "unit": "%"},
      {"measurement": "kinase activity of CDK4 reduced compared to untreated", "setting": "IP-CDK4 from sensitive MCF7 parental cells", "result": 84, "unit": "%"}
    ]}
  ]
}
